Assay results published in patent US9617225B2 (VIROSTATICS SRL, priority 2012, dated 2017).

The chains behind the UniProt entries cited, without tags or fusion partners.
UniProt P50750, whole entry: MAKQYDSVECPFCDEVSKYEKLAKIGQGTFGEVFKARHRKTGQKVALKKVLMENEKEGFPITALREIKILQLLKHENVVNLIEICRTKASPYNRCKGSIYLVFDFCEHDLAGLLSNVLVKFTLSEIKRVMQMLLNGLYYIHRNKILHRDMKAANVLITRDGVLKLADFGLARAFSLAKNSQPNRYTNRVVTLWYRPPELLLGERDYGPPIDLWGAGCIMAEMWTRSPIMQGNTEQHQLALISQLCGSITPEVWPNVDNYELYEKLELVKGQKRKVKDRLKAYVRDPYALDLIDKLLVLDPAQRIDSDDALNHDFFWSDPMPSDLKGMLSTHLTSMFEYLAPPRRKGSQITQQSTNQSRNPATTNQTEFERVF

Target: human CDK9/CyclinT kinase complex (Homo sapiens (Human), UniProt P50750)
Assay: In Vitro CDK9/CyclinT Assay (IMAP fluorescent polarization)
Format: biochemical

**Q.** `COc1ccc(Nc2cc(-c3ccccc3OC)ncn2)cc1CN(C)C` [Example 35, N-(3-((Dimethylamino)methyl)-4-methoxyphenyl)-6-(2-methoxyphenyl)pyrimidin-4-amine] was tested. Which IC50 did it give?
**A.** < 100 nM
